Data from ChEMBL document CHEMBL3112582, “Identification of novel 7-amino-5-methyl-1,6-naphthyridin-2(1H)-one derivatives as potent PI3K/mTOR dual inhibitors” (Bioorg Med Chem Lett, 2014).

Amino acid sequences for entries named in this document (tags omitted).
UniProt P42336, whole entry: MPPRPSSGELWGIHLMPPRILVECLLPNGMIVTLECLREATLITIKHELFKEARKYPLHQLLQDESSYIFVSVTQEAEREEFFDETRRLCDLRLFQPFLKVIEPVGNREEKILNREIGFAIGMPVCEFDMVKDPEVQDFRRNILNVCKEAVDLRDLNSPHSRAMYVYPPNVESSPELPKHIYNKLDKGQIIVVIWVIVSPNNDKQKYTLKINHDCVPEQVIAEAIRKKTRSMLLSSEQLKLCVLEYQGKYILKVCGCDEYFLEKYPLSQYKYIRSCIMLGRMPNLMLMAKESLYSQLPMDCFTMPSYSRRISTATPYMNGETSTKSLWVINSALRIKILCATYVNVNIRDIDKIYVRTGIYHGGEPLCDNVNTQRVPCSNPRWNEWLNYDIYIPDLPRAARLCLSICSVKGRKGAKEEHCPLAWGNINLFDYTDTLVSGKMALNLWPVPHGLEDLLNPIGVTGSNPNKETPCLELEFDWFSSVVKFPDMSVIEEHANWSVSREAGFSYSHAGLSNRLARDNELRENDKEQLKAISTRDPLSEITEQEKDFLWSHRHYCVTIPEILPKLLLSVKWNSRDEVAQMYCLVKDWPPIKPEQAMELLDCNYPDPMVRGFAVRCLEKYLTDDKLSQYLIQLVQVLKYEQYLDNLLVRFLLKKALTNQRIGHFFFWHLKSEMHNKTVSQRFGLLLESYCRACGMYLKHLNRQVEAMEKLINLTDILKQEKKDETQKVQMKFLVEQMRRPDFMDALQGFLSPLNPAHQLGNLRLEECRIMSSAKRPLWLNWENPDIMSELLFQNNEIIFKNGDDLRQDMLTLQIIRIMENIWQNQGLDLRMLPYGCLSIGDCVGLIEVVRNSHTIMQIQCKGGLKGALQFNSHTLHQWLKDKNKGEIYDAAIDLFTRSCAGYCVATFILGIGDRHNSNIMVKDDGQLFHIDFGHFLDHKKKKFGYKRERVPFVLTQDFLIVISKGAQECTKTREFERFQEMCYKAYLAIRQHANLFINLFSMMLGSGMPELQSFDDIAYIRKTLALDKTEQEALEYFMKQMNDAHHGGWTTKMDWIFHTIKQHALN

Molecular target: Phosphatidylinositol 4,5-bisphosphate 3-kinase catalytic subunit alpha isoform (Homo sapiens, UniProt P42336)
Assay: Inhibition of PI3Kalpha (unknown origin) using PIP2/PS as substrate compound preincubated for 15 mins by luciferase-based luminescence assay

IC50: 2.8 nM
SMILES: COc1ccc(-c2cc3c(C)nc(N)nc3n(C3CCCC3)c2=O)cn1
